# Screening data (PubChem BioAssay)
# CAL PDZ FP-1 = blocks peptide binding to the human CAL PDZ domain | purified CAL PDZ, TMR-peptide fluorescence polarization, 1 h | hit rate 0.92% among 300,000 | Q9HD26 | AID 602252 | inhibition, % at 24.9 µM;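 active = mean inhibition of at least 30% with at least half of replicates also reaching 30%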;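 note: 0% = DMSO neutral control and 100% = excess unlabeled competitor peptide PRC23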
# Yeast UUG start-1 = modulators of yeast start codon fidelity, primary screen, whole organism, S. cerevisiae, single point, plate reader; S. cerevisiae UUG-firefly luciferase reporter, luminescence/redox ratio; activity score, % at 18.7 µM; 0.13% of 350,000 active; AID 602363, 2012;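 active = replicate mean at a twofold rise or more, about +100% in these data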;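 also: firefly luciferase made from a UUG start codon reports start codon fidelity; reporter light over untreated wells divided by growth signal over untreated wells; some hits fall short of that in this replicate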
# ARNT TACC3 PPI = ARNT/TACC3 interaction disruption | AlphaScreen His-ARNT PAS-B/GST-TACC3 binding, luminescence; TACC3 fragment carries E629A point mutation | hit rate 0.66% among 390,000 | Q9Y6A5 | inhibition, % at 9.99 µM;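 active = mean inhibition of replicates at least 50% and at least half of replicates each reaching 50%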;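 note: 0% = complete ARNT plus TACC3 wells and 100% = ARNT alone without TACC3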
# Vif inh = HIV Vif inhibition | HEK293T cells, Vif self-association by quenched fluorescence, imaging, 24 h | hit rate 0.35% among 340,000 | AID 602346 | inhibition, % at 7.49 µM; in the data active = inhibition above about 50%, passing the limit was not always enough
# CAL PDZ FP-2 = inhibitors of human CAL PDZ peptide binding. purified CAL PDZ, TMR-peptide fluorescence polarization, 1 h. inhibition, % at 20 µM. hit rate 0.02% among 330,000. AID 504414;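 active = highest replicate inhibition of at least 40%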;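 note: plate controls were DMSO neutral control wells for no effect and unlabeled competitor peptide control wells for full effect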
#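 Test system: purified CerCALP PDZ construct; Compound dosing: one concentration, 20 µM compound; Also added: TMR-labelled reporter peptide T*-PRC34 bound in PDZ groove; Read-out: inhibition from polarization loss; Controls: unlabelled peptide and DMSO controls; Signal: FP readout, S and P plane fluorescence; Incubation: 1 h at RT.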
# PglD inh = inhibitors of Campylobacter jejuni PglD acetyltransferase | purified PglD enzyme, DTNB colorimetric CoA detection | inhibition, % at 12.5 µM | hit rate 0.098% among 360,000; in the data active = inhibition above about 16%, passing the limit was not always enough
# Yeast UUG start-2 = modulators of start codon recognition fidelity in yeast. shares compounds with Yeast UUG start-1. S. cerevisiae UUG-start firefly luciferase, luminescence, 4 h; 100% means double the DMSO signal. activation, % at 38 µM. 540 tested, under 10 active;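 active = signal increase whose fitted curve reaches an absolute level of 40 at a concentration under 10 µM; inactive = activity opposite to the expected increase, or the rest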
# Active calls of the source: *; i = inactive; nt = no result. The list is not random: actives were taken first. Their share in the collection is about 1.6%.
nr	mol	CAL PDZ FP-1	Yeast UUG start-1	ARNT TACC3 PPI	Vif inh	CAL PDZ FP-2	PglD inh	Yeast UUG start-2
1	C[C@@H]1CCCCO[C@H](CN(C)S(=O)(=O)c2cccs2)[C@H](C)CN([C@@H](C)CO)C(=O)c2cc(NC(=O)Cc3ccccc3)ccc2O1	nt	-2	3	nt	nt	-2	nt
2	CCCNC(=O)[C@@H]1[C@@H](CO)[C@@H]2Cn3c(ccc(C4=CCCC4)c3=O)[C@H]1N2C(=O)CC1CC1	nt	nt	-2	nt	nt	1	nt
3	CN(C)CCCN1C(=O)[C@@]2(Cc3ccccc31)c1ccccc1C(=O)N(Cc1ccccc1Cl)[C@H]2c1ccc(CO)cc1	nt	202*	nt	nt	nt	-1	i
4	COc1ccccc1CN1C(=O)c2ccccc2[C@@]2(Cc3ccccc3N(CCN3CCOCC3)C2=O)[C@@H]1c1ccc(CO)cc1	nt	130*	-15	nt	nt	-1	i
5	CC(C)CN1C(=O)[C@@]2(Cc3ccccc31)c1ccccc1C(=O)N(Cc1ccccc1Cl)[C@H]2c1ccc(CO)cc1	nt	22	0	nt	nt	1	nt
6	CO[C@@H]1CN(C)C(=O)c2cc(NC(=O)Nc3c(C)noc3C)ccc2OC[C@@H](C)N(CCC(F)(F)F)C[C@@H]1C	nt	nt	-1	nt	nt	1	nt
7	COc1ccc(NC(=O)Nc2ccc3c(c2)C(=O)N([C@H](C)CO)C[C@@H](C)[C@@H](CN(C)S(=O)(=O)c2ccc(F)cc2)OCCCC[C@@H](C)O3)cc1	nt	-10	27	nt	nt	-3	nt
8	Cc1ccc(NC(=O)/C(=C/c2cccc([N+](=O)[O-])c2)NC(=O)C2CCCCC2)cc1	-2	-15	-6	-2	-1	-2	nt
9	Cc1ccc(NC(=O)/C(=C\c2cccc([N+](=O)[O-])c2)NC(=O)c2cccs2)cc1	-1	557*	7	6	0	3	6
10	Cc1ccc(S(=O)(=O)Nc2ccc3c(c2)CC(=O)N([C@@H](C)CO)C[C@@H](C)[C@H](CN(C)S(=O)(=O)c2cn(C)cn2)O3)cc1	nt	-3	6	nt	nt	0	nt
11	Cc1sc2nc(CN3CCOCC3)nc(N3CCC(C(N)=O)CC3)c2c1C	-2	286*	-10	8	-1	1	-8
12	Cc1sc2nc(CN3CCOCC3)nc(N3CCOCC3)c2c1C	-2	-18	-3	11	-1	9	nt

# Continued:
nr	mol	CAL PDZ FP-1	Yeast UUG start-1	ARNT TACC3 PPI	Vif inh	CAL PDZ FP-2	PglD inh	Yeast UUG start-2
13	Cc1csc(NC(=O)Cc2nn(C)c(=O)c3ccccc23)n1	-3	-18	-1	-25	2	1	-7
14	COc1cccc(OC)c1NC(=O)Cc1nn(C)c(=O)c2ccccc12	-7	-10	2	-3	1	-1	5
15	COc1ccccc1NC(=O)Cc1nn(C)c(=O)c2ccccc12	-2	-19	1	-44	0	3	-1
16	CC(C)N(CC#CC(O)(c1ccccc1)c1ccccc1)C(C)C	nt	nt	5	28	0	nt	-6
17	Cc1ccc(S(=O)(=O)Nc2ccc3c(c2)CC(=O)N([C@@H](C)CO)C[C@@H](C)[C@H](CN(C)C(=O)Nc2ccc4c(c2)OCO4)O3)cc1	nt	0	-1	nt	nt	3	nt
18	CCOC(=O)Cn1nc(C)n(-c2cccc(Cl)c2)c1=O	6	223*	nt	15	1	1	-3
19	CCOC(=O)Cn1nc(C)n(-c2ccc(Cl)cc2)c1=O	-4	nt	-5	-5	0	nt	nt
20	COCCNc1nnc(SCC(=O)c2ccc3c(c2)OCO3)s1	0	474*	-9	28	-1	4	1
21	COc1ccc(/C=N/NC(=O)c2ccc3nc[nH]c3c2)c(OC)c1OC	nt	346*	5	4	-1	4	-5
22	CC(C)(C)OC(=O)N1CCN(c2ccc(NC(=O)Cn3nnc(-c4ccccc4)n3)cc2)CC1	-1	-3	nt	nt	-2	0	nt
23	Cn1nc(CC(=O)Nc2ccc(N3CCN(C(=O)OC(C)(C)C)CC3)cc2)c2ccccc2c1=O	2	736*	-3	nt	-1	4	4
24	Cn1c(C(=O)O)c(CC(=O)Nc2ccc3c(c2)OCCO3)c2ccccc21	-2	-47	5	nt	-3	4	nt

# Going on with the list.
nr	mol	CAL PDZ FP-1	Yeast UUG start-1	ARNT TACC3 PPI	Vif inh	CAL PDZ FP-2	PglD inh	Yeast UUG start-2
25	Cn1nc(CC(=O)Nc2ccc3c(c2)OCCO3)c2ccccc2c1=O	-4	nt	nt	nt	0	nt	-2
26	Cc1ccc(NC(=O)Cc2nn(C)c(=O)c3ccccc23)cc1F	-1	1	-18	-9	nt	3	16
27	Cn1nc(CC(=O)Nc2ccc(Oc3ccccc3)cc2)c2ccccc2c1=O	nt	nt	nt	nt	nt	nt	i
28	Cc1ccc(S(=O)(=O)Nc2ccc3c(c2)C(=O)N([C@@H](C)CO)C[C@@H](C)[C@@H](CN(C)C(=O)C2CCCCC2)OCCCC[C@@H](C)O3)cc1	nt	8	-3	nt	nt	-3	nt
29	Cn1nc(CC(=O)Nc2cccc(O)c2)c2ccccc2c1=O	nt	nt	nt	nt	nt	nt	i
30	C[C@@H]1CN([C@@H](C)CO)C(=O)c2cc(NS(=O)(=O)c3ccccc3)ccc2O[C@@H]1CN(C)Cc1ccncc1	nt	-3	-11	nt	nt	8	nt
31	COc1ccccc1S(=O)(=O)N[C@H]1CC[C@@H](CCNC(=O)C2CCCC2)O[C@@H]1CO	nt	127*	-6	nt	nt	-1	i
32	Cc1ccc(S(=O)(=O)N[C@H]2CC[C@H](CCNC(=O)C3CCCCC3)O[C@H]2CO)cc1	nt	146*	-32	nt	nt	1	i
33	Cc1ccc(S(=O)(=O)N[C@@H]2CC[C@@H](CCNC(=O)C3CCCCC3)O[C@@H]2CO)cc1	nt	-15	-15	nt	nt	-1	nt
34	CC(C)NC(=O)N[C@H]1CC[C@H](CCNC(=O)C2CCC2)O[C@H]1CO	nt	136*	-19	nt	nt	0	i
35	CC(C)NC(=O)N[C@@H]1CC[C@H](CCNC(=O)C2CCC2)O[C@@H]1CO	nt	-9	-3	nt	nt	4	nt
36	COc1ccc(S(=O)(=O)Nc2ccc3c(c2)CC(=O)N([C@H](C)CO)C[C@@H](C)[C@H](CN(C)C(=O)Nc2ccccc2)O3)cc1	nt	49	1	nt	nt	-2	nt

# New compounds follow.
nr	mol	CAL PDZ FP-1	Yeast UUG start-1	ARNT TACC3 PPI	Vif inh	CAL PDZ FP-2	PglD inh	Yeast UUG start-2
37	CCOc1cc(C(=S)N2CCOCC2)ccc1OC(=O)/C=C/c1ccc(OC)c(OC)c1	1	517*	nt	2	0	1	3
38	C[C@H](O)C#Cc1ccc2c(c1)O[C@@H](CN(C)Cc1ccncc1)[C@H](C)CN([C@H](C)CO)S2(=O)=O	nt	0	1	nt	nt	2	nt
39	CC(C)C#Cc1ccc2c(c1)O[C@@H](CN(C)C(=O)CC1CC1)[C@H](C)CN([C@H](C)CO)S2(=O)=O	nt	70*	3	nt	nt	-1	i
40	CC(C)C#Cc1ccc2c(c1)O[C@H](CN(C)C(=O)CC1CC1)[C@H](C)CN([C@@H](C)CO)S2(=O)=O	nt	-16	5	nt	nt	-2	nt
41	Cc1ccc(-c2ccc3c(c2)O[C@H](CN(C)C(=O)Nc2ccccc2)[C@H](C)CN([C@H](C)CO)S3(=O)=O)cc1	nt	122*	4	nt	nt	0	i
42	CCCC#Cc1ccc2c(c1)O[C@@H](CN(C)C)[C@@H](C)CN([C@H](C)CO)S2(=O)=O	nt	128*	-9	nt	nt	-2	i

# Entries 35 through 39, quoted:
nr	mol	CAL PDZ FP-1	Yeast UUG start-1	ARNT TACC3 PPI	Vif inh	CAL PDZ FP-2	PglD inh	Yeast UUG start-2
35	CC(C)NC(=O)N[C@@H]1CC[C@H](CCNC(=O)C2CCC2)O[C@@H]1CO	nt	-9	-3	nt	nt	4	nt
36	COc1ccc(S(=O)(=O)Nc2ccc3c(c2)CC(=O)N([C@H](C)CO)C[C@@H](C)[C@H](CN(C)C(=O)Nc2ccccc2)O3)cc1	nt	49	1	nt	nt	-2	nt
37	CCOc1cc(C(=S)N2CCOCC2)ccc1OC(=O)/C=C/c1ccc(OC)c(OC)c1	1	517*	nt	2	0	1	3
38	C[C@H](O)C#Cc1ccc2c(c1)O[C@@H](CN(C)Cc1ccncc1)[C@H](C)CN([C@H](C)CO)S2(=O)=O	nt	0	1	nt	nt	2	nt
39	CC(C)C#Cc1ccc2c(c1)O[C@@H](CN(C)C(=O)CC1CC1)[C@H](C)CN([C@H](C)CO)S2(=O)=O	nt	70*	3	nt	nt	-1	i
